Compound activity (PubChem)
12-LOX inh = ALOX12 (human) lipoxygenase inhibition; purified 12hLO, xylenol orange hydroperoxide absorbance; Potency, µM (doses to about 108 µM), hits mostly inhibitors; P18054; hit rate 1.1% among 580,000
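Purified human 12hLO at 150 nM in 25 mM Hepes, 0.01% Triton X-100, pH 7.0, preincubated 15 min at room temperature with compound. Reaction started with 40 uM arachidonic acid, 30 min at room temperature. Hydroperoxide measured by Fe-xylenol orange, 573/405 nm absorbance ratio.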
PINK1 expr mod = changes PINK1 expression; Potency, µM (series often up to 76.6 µM), most hits filed as activators; hit rate 0.2% among 410,000; PINK1 immunofluorescence, high-content cytometry, 24 h; active = well fitted activation curve with a large enough effect; inconclusive = small, poorly fitted or top-dose-only effect; cell line not stated here; note: nearly all actives have a fitted effect of over 65% in size
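Compound titrations (5 concentrations, 24 h) on a stable cell line; DMSO and CCCP controls. Endpoint: fixed-cell PINK1 immunofluorescence with mitochondrial, cell and nuclear markers, scanned by microplate cytometer.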
ERG-DNA inh = blocks human ERG Ets domain binding to DNA | P11308 | fluorescence polarization, His-ERG Ets domain / labelled DNA | Potency, µM (doses to about 76.9 µM), actives largely listed as inhibitors | hit rate 0.028% among 370,000; active = well fitted inhibition curve with a large enough effect in the polarisation, with a control signal flat; inconclusive = small, poorly fitted or top-dose-only effect, or effect the other way, or a change in a side signal; inactive = no such curve, though single readings can be large or run the other way; the % refers to the polarisation;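 note: polarization taken with two DNA probes labelled with fluorescein and Texas red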
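His-tagged ERG Ets domain (1 uM in the protein solution; 300mM KCl, 50mM Tris-HCl, 1mM EDTA, 1mM DTT, pH 7.5) received compound, then a probe mix of 5 nM fluorescein-DNA and 100nM Texas-615-DNA. Fluorescence polarization was read for both dyes.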
PTHR1 agonist = activates the human parathyroid hormone receptor PTHR1 | Q03431 | HEK293 GP2 PTHR1 cells, GloSensor cAMP luminescence, 1 h | Potency, µM (series often up to 115 µM), usual class: activators | hit rate 0.075% among 410,000 | AID 743266; note: nearly all actives have a fitted effect of over 55% in size
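HEK-293-derived GP2 cells expressing PTHR1 and a GloSensor cAMP reporter, 3,000/well, plated overnight, given luciferin plus IBMX (each 0.5 mM as added) for 1 h at 37 °C, then compound for 1 h at 37 °C. Luminescence was read after 15 min at room temperature.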
miR-21 reporter = raises the signal of a miR-21 reporter | HeLa miR-21 FLuc reporter, luciferase, 48 h | Potency, µM (doses to about 38.3 µM) | 340,000 tested, under 10 active | AID 2288; active = well fitted rising curve with a large enough effect; inconclusive = small, poorly fitted or top-dose-only effect; inactive = no such curve, though single readings can be large or run the other way;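 note: miR-21 action dims this reporter so a rising signal means less miR-21 action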
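HeLa cells stably expressing CMV-driven firefly luciferase with a downstream miR-21 binding sequence, endogenously expressing miR-21, were treated with titrations (up to about 40uM final) for 48 hours at 37 degree Celsius. Luciferase luminescence was read after lysis.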
Giardia kill = Giardia lamblia killing; Giardia lamblia trophozoite viability; activity change, % at 7.66 µM, hits read low; hit rate 0.15% among 340,000; AID 540267; in the data active = activity change below about -80%; inconclusive = between about -30% and that limit;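 note: parasites exposed to compound for two days anaerobically before the ATP read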
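Luminescent ATP signal served as the viability read-out, measured 15-30 min after adding ATP detection reagent to trophozoites that had been incubated with compounds for 48 hrs at 37 deg C anaerobically at 100 cells/well.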
Hits are given with their value; . = inactive; ? = inconclusive; / = no result; ! = a repeat was not active. An excerpt weighted towards active compounds, which were near 1.3% of everything screened. Unless noted, calls come from the whole dose curve; as a rule, active = well fitted curve in the direction sought with a large enough effect; inconclusive = small, poorly fitted or top-dose-only effect, or another doubt; inactive = no such curve, though single readings can be large; an effect the other way counts as inactive or inconclusive.

SMILES	12-LOX inh	PINK1 expr mod	ERG-DNA inh	PTHR1 agonist	miR-21 reporter	Giardia kill
O=C(O)C1=NOC2CN(Cc3cncs3)CC12 (stereo not drawn)	13µM	/	/	/	/	/
CCOc1ccc(N2C(=O)/C(=C\c3cccs3)C(=O)NC2=S)cc1	?	.	.	.	.	.
O=C1NC(=S)N(c2ccccc2F)C(=O)/C1=C\c1cccs1	32µM	.	.	.	.	.
O=c1[nH]sc2cc(F)ccc12	40µM	.	.	.	?	?
Cc1cc2ccccc2n1CCNC(=O)Cc1ccccc1	.	.	35µM	.	.	.
CCCCCCCCCC(CC)c1ccc(S(=O)(=O)O)cc1 (stereo not drawn)	23µM	/	/	/	/	/
NC[C@H](CS(=O)(=O)O)c1ccc(Cl)cc1	.	/	/	/	/	/
O=S(=O)(NC[C@H]1C[C@@H]2CCN1C[C@@H]2CN1CCc2ccccc21)c1ccccc1	.	/	/	/	/	/
O=c1[nH]c(=S)n(Cc2ccc(F)cc2)c(O)c1/C=N/N1CCCCCC1	35µM	.	.	.	.	.
CCOC(=O)C1=CC(=C2C(=O)N(CC)C(=S)N(CC)C2=O)c2ccccc2O1	18µM	.	.	.	.	.
CCN1C(=O)C(=C2C=C(C)OC(C)=C2)C(=O)N(CC)C1=S	.	.	.	.	.	.
CC[C@@H]1C[C@H]2CC[C@H](O2)[C@H](C)C(=O)O[C@@H](C)C[C@@H]2CC[C@@H](O2)[C@@H](C)C(=O)O[C@H](C)C[C@H]2CC[C@H](O2)[C@H](C)C(=O)O[C@@H](C)C[C@@H]2CC[C@@H](O2)[C@@H](C)C(=O)O1	.	/	/	/	/	/
Cn1cccc1/C=C1/C(=O)NC(=O)N(Cc2ccc(F)cc2)C1=O	?	.	.	.	.	.
Cn1cccc1/C=C1/C(=O)NC(=S)N(Cc2ccc(F)cc2)C1=O	10µM	.	.	.	.	.
NS(=O)(=O)c1ccc(N=Nc2c(O)[nH]c(=S)[nH]c2=O)cc1	40µM	.	.	.	.	.
O=c1[nH]c(=S)[nH]c(O)c1N=Nc1cccc(S(=O)(=O)N2CCOCC2)c1	40µM	.	.	.	.	?
O=c1[nH]c(=S)[nH]c(O)c1N=Nc1ccc(S(=O)(=O)N2CCOCC2)cc1	?	.	.	.	.	.
COC1C(OC(=O)c2ccc(C)[nH]2)C(O)C(Oc2ccc3c(O)c(NC(=O)c4ccc(O)c(CC=C(C)C)c4)c(=O)oc3c2Cl)OC1(C)C (stereo not drawn)	40µM	.	.	.	.	.
O=C(Nc1ccccc1)[C@H]1CN2CCC1C[C@@H]2Cn1cc(-c2ccccc2)nn1 (stereo partly drawn)	.	/	/	/	/	/
C=CCn1c(O)c(C(C)=Nc2ccc(C(=O)OCC)cc2)c(=O)[nH]c1=O	5.6µM	.	.	.	.	.
COc1ccc(NC2CC(=O)N(C(C)C)C2=O)cc1 (stereo not drawn)	4µM	.	.	.	.	.
COc1ccc(NP2(=O)OCC(C)(N)CO2)cc1 (stereo not drawn)	.	.	.	.	/	.
COC(=O)C1=C(c2ccc(-c3ccccc3)c(F)c2)C[C@@H]2CC[C@H]1N2C(=O)NCc1ccco1	.	.	.	.	/	.
C[n+]1ccc(-c2ccncc2)cc1	13µM	.	.	.	.	.
c1ccc(-c2ccncc2)cc1	.	.	.	.	/	.
SMILES	12-LOX inh	PINK1 expr mod	ERG-DNA inh	PTHR1 agonist	miR-21 reporter	Giardia kill
COc1cccc(N2C(=O)NC(=O)/C(=C/c3ccc4c5c(cccc35)CC4)C2=O)c1	40µM	/	/	/	.	/
CN(C)C(=S)SSC(=S)N(C)C	?	.	.	.	?	-85
Cc1cc2c(C(C)C)c(O)c(O)c(C=O)c2c(O)c1-c1c(C)cc2c(C(C)C)c(O)c(O)c(C=O)c2c1O	1.1µM!	?	/	/	?	/
O=C(NCc1ccc2c(c1)OCO2)[C@H]1CN2CCC1C[C@@H]2Cn1cc(C2(O)CCCCC2)nn1 (stereo partly drawn)	.	/	/	/	/	/
O=Cc1c(C(=O)O)n(Cc2ccc(Cl)cc2)c2ccccc12	11µM	.	.	.	.	.
Cc1ccccc1-c1ccc2n(c1=O)C[C@H]1C[C@@H]2CN(C(=O)c2cncnc2)C1	.	/	/	/	/	/
CN(C)P(=NC(=S)c1cccn1C)(N(C)C)N(C)C	40µM	.	.	.	.	.
OCCCCO	.	.	.	.	/	?
O=c1cc(-c2ccc(O)c(O)c2)oc2cc(O)cc(O)c12	10µM!	.	.	.	.	.
O=[N+]([O-])c1oc2ccc3ccccc3c2c1CCO	?	.	.	.	/	-95
COc1ccc(C(=O)OC2CC[C@@]3(C)C4CCC5[C@]6(O)CC(O)[C@@]7(O)C(CN8CC(C)CCC8[C@@]7(C)O)[C@]6(O)C[C@@]53O[C@]24O)cc1OC (stereo partly drawn)	.	.	.	.	.	.
CCNC(=O)C1OC(n2cnc3c(N)ncnc32)C(O)C1O (stereo not drawn)	.	.	.	.	/	.
CCOc1ccccc1CN1C2CCC1CC(c1ccc(C)cc1)C2 (stereo not drawn)	.	.	.	?	.	.
CCOc1cccc(=NC2CCCCC2)c2c(C)n(C)c(C)c12	.	16µM	.	.	?	.
O=C1C2CC=CCC2C(=O)N1SC(Cl)(Cl)Cl (stereo not drawn)	40µM	/	/	/	/	/
C=C1C(=O)OC2CC3(C)OC3C3OC3C3=CC(OC3=O)C12 (stereo not drawn)	.	/	/	/	/	/
COc1cc2c(cc1OC)[C@@H]1C(=O)c3ccc4c(c3OC1CO2)CC(C(C)C)O4 (stereo partly drawn)	/	.	/	/	/	/
COc1cc2c(cc1OC)[C@@H]1C(=O)c3ccc(OC)c(CC=C(C)C)c3OC1CO2 (stereo partly drawn)	/	20µM	/	/	/	/
COc1ccc(C(=O)C23CN4CN(CN(C4)C2)C3)cc1	.	.	.	.	.	.
COc1ccc(C(=O)C(C)(C)NO)cc1	5µM	.	.	.	.	.
COC(=O)C1=C(c2ccccc2OCc2ccccc2)C[C@@H]2CC[C@H]1N2C(=O)NCc1cccc(C(F)(F)F)c1	.	.	.	.	/	.
CCOC(=O)c1ncn2c1[C@H]1CCCN1C(=O)c1cc(OC)ccc1-2	.	/	/	/	/	/
CCOC(=O)C1=C(CN2CCN(c3ccc(C)cc3C)CC2)NC(=O)NC1c1ccc(OC)cc1 (stereo not drawn)	45µM	.	.	.	?	/
CCCCC(=O)N/N=C/c1c(O)n(CCCC)c(=S)[nH]c1=O	?	.	.	.	.	.
O=[N+]([O-])c1ccc(NCc2ccccc2)c2ncccc12	.	/	/	/	/	/
O=[N+]([O-])c1ccc(NCc2ccccc2)c2nonc12	.	40µM	6.3µM	.	.	.
C[n+]1c(-c2ccccc2)c2cc(N)ccc2c2ccc(N)cc21	?	.	14µM	.	?	.
